Yeast mating assay 1: variants of the scFv Ab-14

Data: MIT Lincoln Laboratory AlphaSeq set, Engelhart et al. 2022, doi:10.1038/s41597-022-01779-4, as distributed in FLAb.

Antigen: PDVDLGDISGINAS, a 14-residue peptide of the SARS-CoV-2 spike HR2 region.

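Variants in AAYL50 differ from the parent at up to three CDR positions; double and triple changes were sampled at random. AlphaSeq pools MATa yeast showing the antibodies with MATalpha yeast showing the peptide. After mating in shaken culture at 30 °C for 16 h, diploids were selected and their barcode pairs sequenced. A regression on co-assayed BCL2-family reference pairs converts the normalised counts of each replicate to an apparent Kd. There are three technical replicates.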

Parent: Ab-14, a human scFv built as VH, a 15-residue (Gly4Ser)3 linker, VL. Only the CDRs of the light chain vary.
VH: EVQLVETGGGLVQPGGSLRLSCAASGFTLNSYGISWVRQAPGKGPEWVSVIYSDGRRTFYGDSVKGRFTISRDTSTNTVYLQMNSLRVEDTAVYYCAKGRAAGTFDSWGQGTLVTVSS
VL: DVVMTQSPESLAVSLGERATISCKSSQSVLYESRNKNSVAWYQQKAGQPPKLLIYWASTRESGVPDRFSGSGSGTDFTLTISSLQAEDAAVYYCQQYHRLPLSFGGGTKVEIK

Substitutions are numbered in sequence along the VL above, starting at 1 (not Kabat). All variants listed here change S33 of the VL, counted from its first residue. The read-out is the apparent dissociation constant on a log10 scale (nM): the lower, the stronger. "ND" means that the variant was in the library but no mating with the target was seen in that replicate; the authors take this as a sign of poor binding, and no number exists.

For Q27D+S33L+A40D, the assay gave ND, 3.27, ND.
For Q27P+S33Y+A40P, the assay gave ND, ND, ND.
For S26G+S33Y+R34F, the assay gave 1.47, 1.43, 1.68.
For S33C+H98M+S103L, the assay gave ND, ND, ND.
For S33R+R60H, the assay gave 4.54, 3.47, 4.01.
For S33T+A40M, the assay gave ND, ND, ND.
For K24N+S33D+N37F, the assay gave 1.09, 1.20, 1.32.
For S33Y+T59C+S62G, the assay gave ND, ND, ND.
For S33R+W56D+R99E, the assay gave -0.11, 0.21, -0.07.
For K24I+S33Q+W56N, the assay gave 0.79, 1.06, 0.97.
For S28E+S33P+L102T, the assay gave 1.91, 1.86, 2.34.
For S33V+W56S, the assay gave 0.53, 0.57, 0.44.
For L30I+S33T+K36H, the assay gave 3.03, 3.29, 2.85.
For S33E+S103E, the assay gave 1.52, 1.65, 1.36.
For L30M+S33R+T59H, the assay gave ND, ND, 4.68.
For S33R+R99T+L100T, the assay gave ND, ND, ND.
For K24Q+S33N+K36H, the assay gave 1.20, 1.09, 1.21.
For S33G+K36A+A40R, the assay gave ND, 5.45, ND.
For S33I+R34V+L102N, the assay gave ND, ND, ND.
For V29M+E32M+S33H, the assay gave ND, 3.27, ND.
For S33L+N35Q+T59G, the assay gave ND, ND, 4.46.
For L30T+S33Q+A40I, the assay gave ND, 4.47, 4.12.
For Q27N+S33R+P101L, the assay gave 2.85, 2.36, 2.50.
For S33R+S58E+Y97K, the assay gave 2.81, 3.87, 3.33.
For V29C+S33R+Q96M, the assay gave 2.72, 2.17, 3.58.
For Q27R+S33I+V39Y, the assay gave 3.75, ND, ND.
For S33L+A40Q+W56P, the assay gave ND, ND, 5.36.
For S33P+V39S, the assay gave ND, ND, ND.
For S33V+A40K+E61H, the assay gave ND, ND, ND.
For K24W+V29I+S33Y, the assay gave 2.81, 2.43, 2.85.
For S26P+Y31A+S33W, the assay gave 0.77, 1.13, 1.24.
For S33L+S38A+V39S, the assay gave ND, ND, ND.
For S33Q+A57I+R99A, the assay gave 4.05, 3.84, 4.90.
For S33K+A40S+H98F, the assay gave 4.12, ND, 4.62.
For S33Q+N35P+H98E, the assay gave 0.60, 0.32, 0.33.
For S33K+R60E+H98T, the assay gave ND, 4.30, ND.
For S33W+N37E, the assay gave 2.22, 2.49, 2.44.
For S25I+Q27F+S33L, the assay gave 2.13, 1.85, 2.39.
For S33I+S62Q, the assay gave 1.98, 1.77, 2.15.
For S33D+R99E, the assay gave 1.99, 2.01, 2.61.

Again, the first 6 entries without any signal:

changes,"log10 Kd, replicates"
Q27P+S33Y+A40P,"ND, ND, ND"
S33C+H98M+S103L,"ND, ND, ND"
S33T+A40M,"ND, ND, ND"
S33Y+T59C+S62G,"ND, ND, ND"
S33R+R99T+L100T,"ND, ND, ND"
S33I+R34V+L102N,"ND, ND, ND"

Three control strains display no target. For library AAYL50, 18% of the pairings with them gave a signal, with a median of 4.19 and one signal in twenty below 2.99, so weak values seen in few replicates may be background.